The results in this text go back to PMC8618441, “From Natural Xanthones to Synthetic C-1 Aminated 3,4-Dioxygenated Xanthones as Optimized Antifouling Agents” (Marine Drugs, 2021).

The test system of this assay is Roseobacter litoralis CECT 5395. Briefly: Biofilm-forming marine bacteria growth bioassay. Format: cell-based. The following applies: R. litoralis, concentrations between 2 and 32 µM (Figure S1). The text has this: Five strains of marine biofilm-forming bacteria from the Spanish Type Culture Collection (CECT): Cobetia marina CECT 4278, Vibrio harveyi CECT 525, Halomonas aquamarina CECT 5000, Pseudoalteromonas atlantica CECT 570, and Roseobacter litoralis CECT 5395 were selected for antibacterial screening of the most promising anti-settlement compounds Phylogenetically different bacterial strains were selected to have a broader representation of different susceptibilities regarding antifouling promising compounds, and at the same time, were represented in biofouling films characterized in the Portuguese coast. The experimental procedure was performed as previously reported by Almeida et al.. Briefly, bacteria were inoculated and incubated for 24 h at 26 °C in marine broth (Difco) at an initial density of 0.1 (OD600) in 96 well flat-bottom microtiter plates and exposed to the test compounds at 15 μM. Bacterial growth inhibition in the presence of the compounds was determined in quadruplicate at 600 nm using a microplate reader (Biotek Synergy HT, Winooski, VT, USA). Negative and positive controls used were a solution of marine broth with 0.1% DMSO, and a stabilized solution of marine broth with penicillin-streptomycin-neomycin, respectively. […]

On to `COc1cc(C(Br)Br)c2c(=O)c3ccccc3oc2c1OC` [Compound 6, 1-(dibromomethyl)-3,4-dimethoxy-9H-xanthen-9-one], for which the “antibacterial bioactivity in concentration–response study” value is listed as “not confirmed”.
